A short description of this assay: viability loss in HEK293 cells – cell-based, plate reader, cherry-picked samples, cytotoxicity control, dose response (AID 743446). To be noted: at 26 µM, stronger effect = lower value.

Only a part is listed here, and it is no random draw. Potency and affinity values are given separately. Calls of active or inactive are those of the source. How the calls were made is not given here.

With `COc1cccc(C(c2nnnn2C2CCCCC2)N2CCC(n3c(=O)[nH]c4ccccc43)CC2)c1OC` (stereo unspecified), the max activity is inactive: -57%.

These data come from PubChem BioAssay AID743446 (Broad Institute, 2014).
